# From PubChem BioAssay AID504414 (Broad Institute, 2011)
# Only a part is listed here, and it is no random draw. Activity calls are given as the source filed them.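 The calls were made as follows: active = highest replicate inhibition of at least 40%; inactive = the rest.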
# Target: Golgi-associated PDZ and coiled-coil motif-containing protein (Homo sapiens) (UniProt Q9HD26)
# Test: disruption of CAL PDZ-reporter peptide interaction – biochemical, fluorescence polarization, Cer-tagged CAL PDZ, HTS, primary screen (AID 504414);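 also: plate controls were DMSO neutral control wells for no effect and unlabeled competitor peptide control wells for full effect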
# Conditions: purified CAL PDZ, TMR-peptide fluorescence polarization, 1 h; at 20 µM; active compounds read high
row,SMILES,inhibition
1,CCC(=O)N(c1ccccc1)C1(COC)CCN(CCn2nnn(CC)c2=O)CC1,inactive: -0.517%
2,CCC(=O)N(c1ccccc1)C1(COC)CCN(CCc2cccs2)CC1,inactive: 0.109%
